The values below come from patent publication EP1614683B1, “Indazole compounds and pharmaceutical compositions for inhibiting protein kinases, and methods for their use” (priority 1999, dated 2001).

The target of the assay is CDK2/Cyclin A complex (Homo sapiens, UniProt P24941). The assay is described as follows: CDK2/Cyclin A assay ([32P]ATP incorporation into Rb fragment). In kind it is biochemical. To be noted: read-out: CDK2* (Ki); Table 2.

Regarding `CCOCc1cc(O)c(OC)cc1-c1ccc2c(-c3nc4ccccc4[nH]3)n[nH]c2c1` [Reference Example 24(l), 3-1H-Benzoimidazol-2-yl-6-(2-(ethoxymethyl)-5-methoxy-4-hydroxy-phenyl)-1H-indazole], the Ki (in general, the dissociation constant of the complex between target and ligand, obtained from inhibition or displacement) was 55 nM.
